Experiments:
[1] = system: primary cultures of retinal pigment epithelium (RPE) of adult pigs; test: In vitro assay of the photoprotective activity: phototoxicity induced by A2E and blue light, cell survival; format: cell-based, pig; details: 20 μM compound for 48 h, A2E 30 μM, blue light 470 nm 50 min, survival after 24 h; living cells vs control wells without A2E x100; A2E controls without molecule 39.7±3.7
Protocol: A cell model of phototoxicity induced by the association of a treatment by the A2E and of an illumination by blue light on primary cultures of RPE, wherein cell survival was measured, was used. This model uses primary cultures of retinal pigment epithelium of adult pigs.
This model makes it possible in particular to carry out the screening of molecules aimed at the discovery of new candidates for a treatment of the dry form of AMD. […]
The cell cultivated in 96-well plates were treated for 48 hours with the compounds to be tested (in a 5 mM solution in the DMSO) in such a way as to obtain final concentrations of 5 or 20 μM), of which the last 19 hours in the presence of A2E (final concentration 30 μM). […] Cell survival is measured after 24 hours.
Cell survival and death are detected 24 hours after the induction of the phototoxicity by colouration of the cells with Hoechst (a nuclear marker) and with ethidium (a marker of the nuclei of dead cells). Images of each well are acquired on a fluorescent microscope equipped with a motorised stage controlled by the Metamorph software, and cell survival is quantified by a dedicated quantification program. […]

RPE cells [2] = details: literature, in words; cited from earlier work
RPE cells [3] = details: literature, in words; cited from earlier work; remark: listed apart in the source

**Q.** Which Cell survival [1] does the source give for peonidin here?
**A.** 60.4 ± 8.5%

**Q.** And the “effectiveness for cell survival of the RPE cells” value (RPE cells [2])?
**A.** ineffectiveness

**Q.** What about the “photoprotective effect on the RPE cells” value (RPE cells [3]) of the same substance?
**A.** Contradicting results
